PubChem BioAssay (EPA / NIEHS)
Where “and” joins values, the source holds several entries; their conditions need not be identical. Identical values can stand only once. Only a part is listed here, and it is no random draw. Results filed as inconclusive are left out. Calls of active or inactive are those of the source. The calls were made as follows, unless noted: active = hit-call score of the fitted dose curve at least 0.9, where 1 is the maximum; inactive = score below 0.9.

Sequences of proteins named here, by UniProt entry; tags and fusion partners are left off.
UniProt P08684, whole entry: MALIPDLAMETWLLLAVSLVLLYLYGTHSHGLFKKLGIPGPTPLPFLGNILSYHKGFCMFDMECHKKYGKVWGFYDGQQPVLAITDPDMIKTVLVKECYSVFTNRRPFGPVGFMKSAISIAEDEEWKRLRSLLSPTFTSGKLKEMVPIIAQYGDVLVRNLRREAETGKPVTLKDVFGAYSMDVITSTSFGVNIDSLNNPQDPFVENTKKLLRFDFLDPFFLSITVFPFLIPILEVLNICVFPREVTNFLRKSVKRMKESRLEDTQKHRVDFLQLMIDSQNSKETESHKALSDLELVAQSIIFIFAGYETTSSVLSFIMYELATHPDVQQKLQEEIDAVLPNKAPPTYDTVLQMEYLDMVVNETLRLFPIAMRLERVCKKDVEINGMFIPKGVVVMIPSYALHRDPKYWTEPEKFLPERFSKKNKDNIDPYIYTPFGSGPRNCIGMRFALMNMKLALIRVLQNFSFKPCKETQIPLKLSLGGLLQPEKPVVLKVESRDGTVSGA
UniProt P08047, whole entry: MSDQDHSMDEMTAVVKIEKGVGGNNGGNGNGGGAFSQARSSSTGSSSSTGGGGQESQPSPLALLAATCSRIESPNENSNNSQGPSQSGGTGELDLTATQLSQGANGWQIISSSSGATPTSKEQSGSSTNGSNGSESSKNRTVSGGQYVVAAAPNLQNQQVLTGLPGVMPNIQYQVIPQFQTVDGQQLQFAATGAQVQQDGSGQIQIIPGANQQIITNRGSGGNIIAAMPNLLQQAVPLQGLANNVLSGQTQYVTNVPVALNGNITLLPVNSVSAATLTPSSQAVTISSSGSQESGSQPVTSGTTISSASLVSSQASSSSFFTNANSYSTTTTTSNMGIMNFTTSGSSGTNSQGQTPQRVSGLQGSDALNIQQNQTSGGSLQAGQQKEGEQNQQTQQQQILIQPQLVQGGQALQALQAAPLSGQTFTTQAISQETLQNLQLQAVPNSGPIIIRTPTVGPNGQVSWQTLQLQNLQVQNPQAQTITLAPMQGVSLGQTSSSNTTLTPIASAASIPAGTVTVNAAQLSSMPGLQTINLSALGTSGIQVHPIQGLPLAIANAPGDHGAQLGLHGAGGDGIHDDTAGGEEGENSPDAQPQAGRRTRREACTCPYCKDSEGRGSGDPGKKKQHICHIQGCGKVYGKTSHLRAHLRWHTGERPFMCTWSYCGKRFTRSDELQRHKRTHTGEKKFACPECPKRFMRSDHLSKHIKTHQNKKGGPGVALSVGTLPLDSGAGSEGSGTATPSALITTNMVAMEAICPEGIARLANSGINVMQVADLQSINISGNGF
UniProt P17861, whole entry: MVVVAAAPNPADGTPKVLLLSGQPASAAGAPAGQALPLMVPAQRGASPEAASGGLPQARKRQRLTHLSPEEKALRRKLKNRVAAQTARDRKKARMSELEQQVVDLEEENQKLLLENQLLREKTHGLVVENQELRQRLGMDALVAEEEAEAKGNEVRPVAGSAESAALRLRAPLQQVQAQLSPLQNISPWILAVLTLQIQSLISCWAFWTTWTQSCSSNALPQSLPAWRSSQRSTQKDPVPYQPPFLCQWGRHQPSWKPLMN

Columns and labels:
CYP2E1 (gene 1571) = assay: LTEA_HepaRG_CYP2E1: Life Technologies and Expression Analysis (LTEA) Assay for CYP2E1 using HepaRG (AID 2283485); conditions: actives raise or lower the signal; mRNA level, 48 h
How it was run: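 HepaRG cells in serum-free induction medium exposed 48 h to test chemicals, 8 half-log concentrations up to 100 uM in 0.5% DMSO, duplicate. CYP2E1 mRNA by qRT-PCR, normalized to ACTB, GAPDH, POLR2A; bidirectional fit versus DMSO.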

[1] = read-out: catalase (CAT), CAT (gene 847); assay: LTEA_HepaRG_CAT: Life Technologies and Expression Analysis (LTEA) Assay for catalase (CAT) using HepaRG (AID 2283452); conditions: actives raise or lower the signal; mRNA level, 48 h;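 also: TaqMan qRT-PCR signal normalized to ACTB GAPDH and POLR2A housekeeping genes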
How it was run: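 Differentiated HepaRG cells in serum-free induction medium were dosed 48 h in duplicate, eight half-log concentrations from 100 uM in 0.5% DMSO. Transcript measured by TaqMan qRT-PCR, normalised to ACTB/GAPDH/POLR2A, fitted bidirectionally against DMSO.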

[2] = read-out: Apolipoprotein A-V (APOA5) gene, APOA5 (gene 116519); assay: LTEA_HepaRG_APOA5: Life Technologies and Expression Analysis (LTEA) Assay for Apolipoprotein A-V (APOA5) gene using HepaRG (AID 2283474); conditions: actives raise or lower the signal; mRNA level, 48 h
How it was run: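 Readout is APOA5 transcript level by qRT-PCR on Fluidigm dynamic arrays, normalized to three housekeeping genes. HepaRG cultures received chemicals for 48 h at up to 100 uM (half-log steps, 0.5% DMSO), with gain or loss scored relative to DMSO.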

[3] = read-out: Glutathione S-Transferase (GSTA2), GSTA2 (gene 2939); assay: LTEA_HepaRG_GSTA2: Life Technologies and Expression Analysis (LTEA) Assay for Glutathione S-Transferase (GSTA2) using HepaRG (AID 2283497); conditions: actives raise or lower the signal; mRNA level, 48 h
How it was run: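 Human HepaRG cells, plated 48 h, then exposed in serum-free induction medium for 48 h to eight half-log concentrations up to 100 uM in 0.5% DMSO, duplicate. GSTA2 mRNA by qRT-PCR, normalized to ACTB/GAPDH/POLR2A; bidirectional fit versus DMSO.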

[4] = read-out: 3-Hydroxy-3-Methylglutaryl-CoA Synthase 2 (HMGCS2), HMGCS2 (gene 3158); assay: LTEA_HepaRG_HMGCS2: Life Technologies and Expression Analysis (LTEA) Assay for 3-Hydroxy-3-Methylglutaryl-CoA Synthase 2 (HMGCS2) using HepaRG (AID 2283504); conditions: actives raise or lower the signal; mRNA level, 48 h
How it was run: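 HepaRG, plated 48 h then switched to serum-free induction media; cmpd 8-pt, max 100 uM, 1/2-log, 0.5% DMSO, n=2, 48 h. HMGCS2 mRNA by Fluidigm TaqMan qRT-PCR, ACTB/GAPDH/POLR2A norm; bidirectional fit vs DMSO.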

[5] = read-out: Tumor necrosis factor receptor 1 (TNFRSF1A), TNFRSF1A (gene 7132); assay: LTEA_HepaRG_TNFRSF1A: Life Technologies and Expression Analysis (LTEA) Assay for Tumor necrosis factor receptor 1 (TNFRSF1A) using HepaRG (AID 2283535); conditions: actives raise or lower the signal; mRNA level, 48 h
How it was run: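 Read-out is TNFRSF1A transcript level by TaqMan qRT-PCR, normalized to three housekeeping genes, scored as gain or loss of signal versus 0.5% DMSO. Human HepaRG cells received test chemicals for 48 h at up to 100 uM (half-log series).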

[6] = CCTE_Mundy_HCI_Cortical_Synap_Neur_Matur_NeuriteCount: CCTE's Synaptogenesis and Neurite Maturation Assay in rat cortical cells for Neurite Count, Mundy Lab (AID 2284222)
How it was run: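 Chemical exposure runs DIV 7–12 in rat cortical cultures, glia suppressed by AraC at DIV 5; measurement is at DIV 12. Imaging-derived neurite counts are fitted against DMSO baseline.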

[7] = read-out: Cytochrome P450 3A4 (Homo sapiens) (UniProt P08684); assay: LTEA_HepaRG_CYP3A4: Life Technologies and Expression Analysis (LTEA) Assay for CYP3A4 using HepaRG (AID 2283487); conditions: actives raise or lower the signal; mRNA level, 48 h
How it was run: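 HepaRG, 48 h exposure, 8-pt CRC from 100 uM (half-log), 0.5% DMSO, duplicates; serum-free induction medium. Readout: CYP3A4 mRNA, qRT-PCR, ACTB/GAPDH/POLR2A normalization. Bidirectional fit vs DMSO.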

[8] = ATG_AP_1_CIS: Attagene CIS-FACTORIAL HepG2 Assay for human Activator Protein 1 (AP-1) (AID 2282931); conditions: HepG2 Attagene cis-factorial AP-1 reporter mRNA; actives raise or lower the signal
How it was run: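 Readout is reporter transcript level from endogenous transcription factor activity, quantified by RT-PCR with fluorescent primer extension and capillary electrophoresis. Transiently transfected HepG2 cells, 24 h exposure. Curves fitted both directions versus DMSO.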

[9] = ATG_EGR_CIS: Attagene CIS-FACTORIAL HepG2 Assay for human Early Growth Response 1 (EGR1) (AID 2282938); conditions: HepG2 Attagene CIS-FACTORIAL EGR reporter mRNA; actives raise or lower the signal
How it was run: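 After 24 h compound exposure, RNA from reporter-transfected HepG2 cells was reverse-transcribed, PCR-amplified, fluorescently labelled and resolved by capillary electrophoresis. EGR1 reporter transcript changes, up or down, were fitted against DMSO, reflecting endogenous transcription-factor activity.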

[10] = ATG_MRE_CIS: Attagene CIS-FACTORIAL HepG2 Assay for human Metal Responsive Element (MRE) (AID 2282954); conditions: HepG2 MRE cis-reporter transcription, Attagene multiplex; actives raise or lower the signal
How it was run: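 HepG2 cells transiently transfected with multiple cis-element reporter units measure endogenous MTF1-driven transcription. After 24 h compound exposure, reporter mRNA is quantified by RT-PCR with 6-FAM labelling, HpaI digestion and capillary electrophoresis; bidirectional fits versus DMSO.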

[11] = read-out: Human Leukocyte Antigen - DR isotype (HLADR), HLA-DRA (gene 3122); assay: BSK_3C_HLADR: BioMAP Diversity Plus: 3C Assay for Human Leukocyte Antigen - DR isotype (HLADR) Biomarker Activity (AID 2283019); conditions: actives raise or lower the signal; primary human endothelial cells (HUVEC)
How it was run: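 ELISA readout of surface HLA-DR on human umbilical vein endothelium, taken 24 h after chemical treatment. Gain- and loss-of-signal were both fitted relative to DMSO.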

[12] = ATG_ERE_CIS: Attagene CIS-FACTORIAL HepG2 Assay for Estrogen Response Element (ERE) (AID 2282940); conditions: HepG2 ERE cis-reporter, Attagene RNA transcript; actives raise or lower the signal
How it was run: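 HepG2, transient cis-reporter units, 24 h exposure. RNA isolated, oligo(dT) RT, reporter-specific PCR, FAM extension, HpaI cut, CE detection. Gain/loss-of-signal vs DMSO.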

[13] = target: Transcription factor Sp1 (Homo sapiens) (UniProt P08047); assay: ATG_Sp1_CIS: Attagene CIS-FACTORIAL HepG2 Assay for human Specificity Protein 1 (Sp1) (AID 2282961); conditions: HepG2 Sp1 cis-reporter transcription, actives raise or lower the signal
How it was run: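 Read-out is reporter transcript level, measured by RT-PCR and fluorescent capillary electrophoresis after 24 h chemical treatment. System: transiently transfected HepG2 cells reporting endogenous transcription factor activity; gain or loss fitted against DMSO baseline.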

[14] = target: X-box-binding protein 1 (Homo sapiens) (UniProt P17861); assay: ATG_Xbp1_CIS: Attagene CIS-FACTORIAL HepG2 Assay for human X-box Binding Protein 1 (XBP1) (AID 2282972); conditions: HepG2 XBP1 cis-element reporter, Attagene multiplex; actives raise or lower the signal
How it was run: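 After a 24-hour chemical exposure of HepG2 cells carrying cis-regulated reporters, reporter mRNA levels are assessed. Quantification uses RT-PCR, 6-FAM labelling and capillary electrophoresis. Gain- or loss-of-signal is fitted against DMSO.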

[15] = BSK_hDFCGF_Proliferation: Cell Proliferation Assessment in the BioMAP Diversity Plus: hDFCGF Assay (AID 2283059); conditions: primary human foreskin fibroblasts;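 also: curves fitted for both rise and fall of signal versus DMSO baseline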
How it was run: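 Steps: dose primary human dermal fibroblasts (foreskin); […] fix in 10% TCA; stain with 0.1% SRB; read 560 nm; fit gain or loss of signal against DMSO.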

[16] = STM_H9_NormalizedViability: Cytotoxicity Assessment at 120 hours in the Stemina devTOX quickPredict H9 human embryonic stem cell (hESC)-based Assay (AID 2283784; active = hit-call score of the fitted dose curve at least 0.9, where 1 is the maximum)
How it was run: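 Undifferentiated H9 hESCs kept pluripotent were exposed to compound, with media and chemical replaced every 24h. CellTiter-Fluor protease-substrate fluorescence was background-corrected and normalized per plate to the 0.1% DMSO vehicle; signal loss indicates reduced viability.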

[17] = read-out: Interleukin 17A (IL17A), IL17A (gene 3605); assay: BSK_BT_xIL17A: BioMAP Diversity Plus: BT Assay for Interleukin 17A (IL17A) Biomarker Activity (AID 2284229); conditions: primary human B cells with PBMC
How it was run: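 Secreted IL-17A was the measured endpoint, read by Luminex xMAP multiplex in supernatants of a human B cell/PBMC co-culture harvested 24 h after chemical dosing. Signal increase relative to DMSO defined activity.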

[18] = read-out: Interleukin 2 (IL2), IL2 (gene 3558); assay: BSK_BT_xIL2: BioMAP Diversity Plus: BT Assay for Interleukin 2 (IL2) Biomarker Activity (AID 2284245); conditions: primary human B cells with PBMC
How it was run: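 Human B cells co-cultured with PBMC, exposed to test chemical for 24 h. Secreted IL-2 quantified by Luminex xMAP bead immunoassay; activity fitted in the positive direction relative to DMSO vehicle baseline.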

Measured: AC50

Cc1ccc([N+](=O)[O-])cc1[N+](=O)[O-]
active: CYP2E1 (gene 1571) 17.9 µM

CC(C)OP(=S)(OC(C)C)SCCNS(=O)(=O)c1ccccc1
active: [1] 74.5 µM | [2] 58.8 µM | [3] 77.7 µM | [4] 71.4 µM | [5] 78.7 µM | [6] 74.5 µM and 57.2 µM

Cc1c([N+](=O)[O-])cccc1[N+](=O)[O-]
active: [7] 18.2 µM

Cc1cccc([N+](=O)[O-])c1[N+](=O)[O-]
active: [8] 71.5 µM | [9] 71.5 µM | [10] 71.5 µM | [11] 21.9 µM

O=[N+]([O-])OCC(CO[N+](=O)[O-])(CO[N+](=O)[O-])CO[N+](=O)[O-]
active: [12] 83.5 µM

O=[N+]([O-])c1ccc([N+](=O)[O-])cc1
active: [13] 81.9 µM | [14] 57.5 µM | [15] 10.3 µM | [16] 58.1 µM | [17] 24.6 µM | [18] 28.9 µM
